Patent US8188074B2 (dated 2012)

Tests used:
[1] = applied topically, 5.79 μg (20 μl at 0.5 mM); light 25 J/cm^2; 24 hours post-light

3,7-(tetra-n-butylamino)-phenothiazin-5-ium [Compound 2]
skin reaction (increase in ear thickness), FIG. 17 [1]: little or no reaction | uptake into E. coli cells, FIG. 9 (E. coli; 10 μM, 30 minute incubation, cells washed twice): taken up the most | uptake into E. coli, incubation times of 5 minutes versus 30 minutes (E. coli; data not shown): no differences in uptake
